Source: US20120328575A1
Several values for one entry are separate records, joined by “and”; a condition that tells them apart may be missing. Equal entries are not always repeated.

Chains of the proteins cited; added tags and fusions are not shown. Residues count along the entry.
UniProt P08174, 35-353: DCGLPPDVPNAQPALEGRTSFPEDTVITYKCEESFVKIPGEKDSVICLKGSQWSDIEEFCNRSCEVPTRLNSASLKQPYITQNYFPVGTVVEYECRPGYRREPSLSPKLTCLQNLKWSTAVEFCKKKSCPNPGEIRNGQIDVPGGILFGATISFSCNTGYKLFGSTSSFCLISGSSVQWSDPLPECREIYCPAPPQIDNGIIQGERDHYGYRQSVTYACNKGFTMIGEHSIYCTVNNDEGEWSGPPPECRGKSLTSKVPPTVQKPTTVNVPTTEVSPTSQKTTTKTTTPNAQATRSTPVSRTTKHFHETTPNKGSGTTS

Biological target: Decay-accelerating factor (DAF/CD55), surface expressed (human) (UniProt P08174)

How did the fold enhancement of viral binding by anti-SCR3 pretreatment turn out when “CVA21 parental (CVA21 prototype strain Kuykendall double-plaque purified in SkMel28 cells)” was run?
The fold enhancement of viral binding by anti-SCR3 pretreatment was 8 fold and 4 fold.
